We go through 4 molecules from patent publication US20230219951A1, “PYRIDINE-PYRIMIDINE DERIVATIVE, PREPARATION METHOD THEREFOR AND PHARMACEUTICAL USE THEREOF” (Jiangsu Hengrui Pharmaceuticals Co., Ltd., priority 2020, published 2023).

Protein sequences, listed by entry. Tags and fused reporters are not part of them. Lines headed by an entry give the natural chain unless they say otherwise; changes in a name come on top. Residues count along the entry.
UniProt Q07889, 564-1049 limits assumed, stated change not applied: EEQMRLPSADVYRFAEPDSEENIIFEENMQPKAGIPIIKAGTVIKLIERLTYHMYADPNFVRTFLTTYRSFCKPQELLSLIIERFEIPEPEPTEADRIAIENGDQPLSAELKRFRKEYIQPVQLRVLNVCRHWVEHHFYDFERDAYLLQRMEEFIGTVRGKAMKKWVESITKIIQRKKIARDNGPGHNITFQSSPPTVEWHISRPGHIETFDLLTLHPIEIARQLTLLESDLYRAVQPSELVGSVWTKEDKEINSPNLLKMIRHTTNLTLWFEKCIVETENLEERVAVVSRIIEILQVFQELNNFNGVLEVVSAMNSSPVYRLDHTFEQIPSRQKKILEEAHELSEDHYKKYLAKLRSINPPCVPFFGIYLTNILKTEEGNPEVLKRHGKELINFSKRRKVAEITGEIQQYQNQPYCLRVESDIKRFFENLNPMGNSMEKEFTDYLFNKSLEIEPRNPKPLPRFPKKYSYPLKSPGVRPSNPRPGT

One test has as its system H358 cells. Kind of test: Inhibition of proliferation of H358 cells (CellTiter-Glo 3D). The note with it: read-out: IC50 (nM), proliferation of H358 cells, low adsorption plate, 120 h. The protocol:
This example is intended to evaluate the inhibition effect of the compounds of the present disclosure on the KRAS target (containing the G12C mutation) by testing the inhibition effect of the compounds of the present disclosure on the proliferation of H358 cells.
H358 cells (ATCC, CRL-5807) were cultured in a complete medium, namely RPMI1640 medium (Hyclone, SH30809.01) containing 10% fetal bovine serum (Corning, 35-076-CV). On the first day of the experiment, the H358 cells were seeded into a 96-well low adsorption plate (Coming, CLS7007-24EA) at a density of 1500 cells/well with a complete medium to form 90 μL of cell suspension per well. The plate was centrifuged at 2000 rpm for 5 min at room temperature and then incubated overnight in a cell incubator at 37° C. with 5% CO2. The next day, 10 μL of test compound diluted in a gradient prepared with the complete medium was added to each well. The final concentrations of the compound were 9 concentration points obtained by 5-fold gradient dilution from 10 μM. A blank control containing 0.1% DMSO was set. The plate was incubated in a cell incubator at 37° C. with 5% CO2 for 120 h. On the seventh day, the 96-well cell culture plate was taken out and 50 μL of CellTiter-Glo® 3D reagent (Promega, G9682) was added into each well. The plate was shaken at room temperature for 25 min, pipetted and mixed well, from which 50 μL of the mixture was transferred into a white impermeable 96-well plate (PE, 6005290). The luminescence signal values were read using a multi-mode microplate reader (PerkinElmer, VICTOR 3).
IC50 values for the inhibitory activity of the compounds were calculated using Graphpad Prism software.
On the technique in general: Cellular ATP, detected with luciferase, serves as a proxy for viable cell number.

In test [1] the target is interaction between the KRAS protein subtype G12D and the SOS1 protein (Homo sapiens, UniProt Q07889). Put plainly: Inhibition of the interaction between KRAS G12D and SOS1 protein (AlphaLISA/AlphaScreen). As to conditions: read-out: SOS1-G12D IC50/nM; KRAS G12D + GST-TEV-SOS1(564-1049) + GDP. The protocol:
(§1) Test Example 1: Inhibitory Ability of Compounds of the Present Disclosure to the Interaction Between the KRAS Protein Subtype G12D or G12V and the SOS1 Protein. The inhibitory ability of the compounds of the present disclosure to the interaction between the KRAS protein subtype G12D or G12V and the SOS1 protein was determined by the following method. The experimental method was briefly described as follows:
(§2) 1. The experimental buffer was prepared prior to the start of the experiment: 1×PBS+0.1% BSA+0.05% tween 20.
(§3) 2. KRAS G12D and KRAS-G12V proteins were labeled with biotin using the biotin labeling kit.
(§4) 1. Firstly, the biotin-labeled KRAS G12D or KRAS G12V protein was mixed and incubated with the SOS1 protein and GDP for later use.
(§5) 2. AlphaLISA glutathione acceptor beads and AlphaScreen streptavidin donor beads were mixed at a ratio of 1:1 to make the concentration of 40 μg/mL for later use.
(§6) 3. The compound was formulated with the experimental buffer to obtain 10 concentration points by 5-fold gradient dilution from an initial concentration of 40 μM.
(§7) 4. In the 384-well microplate, 10 μL of a mixture of KRAS G12D or KRAS G12V protein and SOS1 and GDP and 5 μL of the diluted compound were added to each well and incubated at room temperature for 30 min away from the light.
(§8) 5. Then, 5 μL of a mixture of AlphaLISA glutathione acceptor beads and AlphaScreen streptavidin donor beads was added to each well and incubated at room temperature for 60 min away from the light.
(§9) 6. The fluorescence values were read on a multi-mode microplate reader.
(§10) 7. IC50 values of the compounds were calculated using Graphpad Prism.

Test [2] has as its target interaction between the KRAS protein subtype G12V and the SOS1 protein (Homo sapiens, UniProt Q07889). Kind of test: Inhibition of the interaction between KRAS G12V and SOS1 protein (AlphaLISA/AlphaScreen). As to conditions: read-out: SOS1-G12V IC50/nM; KRAS G12V + GST-TEV-SOS1(564-1049) + GDP. The protocol:
as §1, §2, §3, §4, §5, §6, §7, §8, §9, §10

Take `Cc1nc(N[C@H](C)c2cccc(C(F)F)c2F)c2cc(C3(O)CCC(C(=O)N(C)C)CC3)c(=O)[nH]c2n1` (single isomer, unassigned) [Shorter retention time in 14-p1 and 14-p2]: the figures for the IC50 (with H358 cells; in test [1]; in test [2]) were 34 nM, 14 nM and 47 nM, respectively.

With `Cc1nc(N[C@H](C)c2cccc(C(F)F)c2F)c2cc(C3(O)CCC(C(=O)N(C)C)CC3)c(=O)[nH]c2n1` (single isomer, unassigned) [Longer retention time in 14-p1 and 14-p2], the IC50 with H358 cells was 597 nM; in test [1], 107 nM; in test [2] it was 411 nM.

In the case of `Cc1nc(N[C@H](C)c2cccc(C(F)(F)CO)c2F)c2cc(C3CCC(O)CC3)c(=O)[nH]c2n1` (single isomer, unassigned) [Shorter retention time in 11-p1 and 11-p2], the figures for the IC50 (with H358 cells; in test [1]; in test [2]) were 104 nM, 10 nM and 38 nM, respectively.

Regarding `Cc1nc(N[C@H](C)c2cccc(C(F)(F)CO)c2F)c2cc(C3CCC(O)CC3)c(=O)[nH]c2n1` (single isomer, unassigned) [Longer retention time in 11-p1 and 11-p2], the IC50 in the test on H358 cells was 72 nM; in test [1] it was 21 nM; in test [2], 23 nM.
